Source: US9687569B2, “Theranostic nanoparticle and methods for making and using the nanoparticle” (priority 2012, dated 2017)

Test system: C6-ADR cells
Assay: Dose-response, Alamar Blue cell viability assay
Conditions: DOX dose

COc1cccc2c1C(=O)c1c(O)c3c(c(O)c1C2=O)C[C@@](O)(C(=O)CO)C[C@@H]3O[C@H]1C[C@H](N)[C@H](O)[C@H](C)O1.Cl [free DOX, Doxorubicin.HCl]
IC50 (24 h after treatment): 0.748 ± 0.146 µg/mL
IC50 (72 h after treatment): 1.102 ± 0.105 µg/mL
